Yeast mating assay B: variants of the scFv Ab-14

The measurements come from Li et al. 2023 (doi:10.1038/s41467-023-39022-2) through the FLAb antibody collection.

Binding partner: SARS-CoV-2 spike HR2 peptide, sequence PDVDLGDISGINAS.

Parent scFv Ab-14: VH joined to VL by three GGGGS repeats. Changes lie in the light chain CDRs alone.
VH: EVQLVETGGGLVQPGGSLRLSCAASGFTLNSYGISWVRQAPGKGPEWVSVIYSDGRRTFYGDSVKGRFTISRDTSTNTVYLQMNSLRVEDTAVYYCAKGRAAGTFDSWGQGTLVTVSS
VL: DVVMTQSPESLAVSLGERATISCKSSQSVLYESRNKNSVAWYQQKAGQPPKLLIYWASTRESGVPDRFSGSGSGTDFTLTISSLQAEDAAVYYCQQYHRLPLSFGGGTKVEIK

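The parent was found by panning a naive human phage display library on the peptide. These sequences belong to a second round, designed from the earlier measurements on random variants of the parent. Their group label is 14L_En_Gibbs (En: ensemble of fine-tuned language models; Gibbs: Gibbs sampling). The scFvs were displayed on barcoded MATa yeast, the peptide on MATalpha yeast. Pairs that bind mate more often; barcode pairs of the diploids are counted by sequencing. Read counts were normalised to the haploid input and turned into Kd by a linear fit to BCL2-family pairs of known affinity, for each replicate. There are six technical replicates.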

The whole VL of each variant is written out.
Values are log10 of the apparent Kd in nM; lower means stronger binding.
The mean shown is taken over the replicates in which the pair was detected.
"ND" marks a missing value. The strain was present, yet no cells mated with the target were sequenced in that replicate, which points to weak or no binding.
In the paper, a design with two or fewer of six values counts as a poor binder.
Values of this round are not directly comparable with the first-round values of the same sequences.
Background: pairings of all light chain designs with three empty control strains gave a value in 4% of cases (median 2.64, 5th percentile 1.59). Values in that range, when seen in few replicates, are hard to tell from nonspecific mating. The control count says in how many pairings with the empty strains this scFv gave a signal, with their mean in brackets.

VL	replicates, log10 nM	log10 Kd (nM), mean	control signals
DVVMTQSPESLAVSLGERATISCKMQSHLFQDFAIWNNIAWYQQKAGQPPKLLIYEREQVAEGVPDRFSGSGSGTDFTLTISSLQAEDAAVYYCQQYFQLPLVFGGGTKVEIK	ND ND 1.77 2.26 1.62 ND	1.88	1/18 (2.36)
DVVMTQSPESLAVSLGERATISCTLHANIEYGGGMWSSIAWYQQKAGQPPKLLIYDNVQRADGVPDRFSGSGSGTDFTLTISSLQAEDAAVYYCQQYQRLPLGFGGGTKVEIK	1.15 1.51 0.30 1.49 0.63 2.04	1.19	0/18
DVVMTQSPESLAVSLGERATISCKLQNFSQEDNKMWNNVAWYQQKAGQPPKLLIYDMTMKHTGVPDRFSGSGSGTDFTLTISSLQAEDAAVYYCQQYNRLPLEFGGGTKVEIK	-0.01 -0.01 -0.22 -0.09 0.01 0.33	0.00	1/18 (3.17)
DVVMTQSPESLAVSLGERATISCKFNMEVGGQNTNKYNIAWYQQKAGQPPKLLIYAAHQLEYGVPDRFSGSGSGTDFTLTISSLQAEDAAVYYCQTYHRLPLSFGGGTKVEIK	ND 2.09 1.14 0.90 1.80 1.78	1.54	0/18
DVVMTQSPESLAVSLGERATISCNLSWKTIGFENEWMAIAWYQQKAGQPPKLLIYNTSERNAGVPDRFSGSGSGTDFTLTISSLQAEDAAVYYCQQYARLPLSFGGGTKVEIK	0.65 0.93 0.97 0.37 0.55 0.76	0.70	4/18 (2.86)
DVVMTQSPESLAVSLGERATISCHIDSQEVGTIGAESNVAWYQQKAGQPPKLLIYETNTLLYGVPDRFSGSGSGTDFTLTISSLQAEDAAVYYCQQYSKLPLSFGGGTKVEIK	2.23 2.03 1.67 1.60 1.38 2.10	1.83	0/18
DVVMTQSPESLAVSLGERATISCRLSNQETEQIQHANSIAWYQQKAGQPPKLLIYDRDEVDVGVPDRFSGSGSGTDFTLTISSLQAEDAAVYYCQQYAHLPLSFGGGTKVEIK	0.71 0.53 0.72 0.43 0.55 0.27	0.54	0/18
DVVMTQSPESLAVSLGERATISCNLMSHQGEYDVWKYSIAWYQQKAGQPPKLLIYEASIRLSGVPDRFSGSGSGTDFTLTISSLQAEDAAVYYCQQYFRLPLAFGGGTKVEIK	ND ND ND ND ND ND	ND	0/18
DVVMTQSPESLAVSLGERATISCHLSLPWQLGHPSTNAVAWYQQKAGQPPKLLIYNMDVLMTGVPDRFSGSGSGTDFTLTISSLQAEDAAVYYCQQYSRLPLSFGGGTKVEIK	0.22 -0.35 ND ND ND ND	-0.07	0/18
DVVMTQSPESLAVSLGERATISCNLQNLGMENSVWKNAIAWYQQKAGQPPKLLIYDVNILEIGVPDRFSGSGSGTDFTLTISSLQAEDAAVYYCQQYWRLPLLFGGGTKVEIK	ND 0.17 1.47 0.33 -0.01 1.17	0.62	0/18
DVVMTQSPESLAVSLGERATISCHITSNMFGTIGVESNVAWYQQKAGQPPKLLIYETNTLLVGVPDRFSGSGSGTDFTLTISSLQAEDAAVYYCQQYSKLPLMFGGGTKVEIK	2.17 1.81 2.82 2.43 2.20 1.40	2.14	0/18
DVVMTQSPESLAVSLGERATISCMIAGSLESQEANQAPVAWYQQKAGQPPKLLIYSATCREPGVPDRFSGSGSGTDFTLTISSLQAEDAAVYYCQQYSQLPLMFGGGTKVEIK	1.08 1.24 1.39 1.39 1.23 1.28	1.27	1/18 (3.18)
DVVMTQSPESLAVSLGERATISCSLAMLLDQVYAKGANIAWYQQKAGQPPKLLIYNAAELVVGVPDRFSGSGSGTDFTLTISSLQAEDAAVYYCQQYYRLPLTFGGGTKVEIK	1.12 2.26 1.49 2.10 1.64 2.19	1.80	0/18
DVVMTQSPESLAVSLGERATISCRLQEDNQLGTNIGNNVAWYQQKAGQPPKLLIYEHQTVFDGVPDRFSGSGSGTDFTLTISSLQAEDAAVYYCQQYAHLPLQFGGGTKVEIK	ND 1.48 ND 0.49 0.75 ND	0.91	0/18
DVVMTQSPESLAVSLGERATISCFLAYALDQDGLIKNNIAWYQQKAGQPPKLLIYQDNLLENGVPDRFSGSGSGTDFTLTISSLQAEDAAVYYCQQYERLPLGFGGGTKVEIK	ND ND ND ND ND ND	ND	0/18
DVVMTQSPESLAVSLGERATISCVFSGQWDLNTTVNSSVAWYQQKAGQPPKLLIYNVSERMLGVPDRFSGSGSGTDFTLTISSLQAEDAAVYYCQQYNRLPLMFGGGTKVEIK	1.86 1.38 1.26 2.37 2.03 1.39	1.72	2/18 (2.58)
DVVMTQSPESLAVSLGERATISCQMGYALFHEDAKKKSIAWYQQKAGQPPKLLIYENTVKVYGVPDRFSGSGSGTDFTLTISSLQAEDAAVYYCQQYAKLPLTFGGGTKVEIK	0.60 0.58 0.52 0.08 -0.13 -0.06	0.27	0/18
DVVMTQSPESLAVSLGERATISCRVQQWSGHSDMTWKSIAWYQQKAGQPPKLLIYSASLRAQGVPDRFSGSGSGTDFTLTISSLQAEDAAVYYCQQYARLPLEFGGGTKVEIK	0.97 0.76 1.20 1.05 1.14 1.14	1.04	3/18 (2.73)
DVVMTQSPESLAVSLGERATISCWLNWEGQGDDRGMSNIAWYQQKAGQPPKLLIYDSDTRMAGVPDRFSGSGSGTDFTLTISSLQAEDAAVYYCQQYHRLPLSFGGGTKVEIK	0.02 0.27 0.12 -0.10 -0.01 0.06	0.06	1/18 (2.41)
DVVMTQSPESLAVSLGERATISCQMTFQLFEQGNRSGPIAWYQQKAGQPPKLLIYHESMRETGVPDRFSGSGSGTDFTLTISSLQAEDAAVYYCQQYASLPLTFGGGTKVEIK	ND ND ND 1.60 ND 2.60	2.10	0/18
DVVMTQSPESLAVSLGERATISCKIQQVMAGFKNEENNIAWYQQKAGQPPKLLIYSGAVRLWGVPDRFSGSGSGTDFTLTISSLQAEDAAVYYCQQYLRLPFIFGGGTKVEIK	1.25 1.06 0.94 1.24 0.75 1.52	1.13	0/18
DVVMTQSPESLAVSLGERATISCNLSWKSIGFENEWMAIAWYQQKAGQPPKLLIYNTSERNAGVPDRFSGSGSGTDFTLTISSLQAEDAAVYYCQQYARLPLSFGGGTKVEIK	0.79 1.64 1.31 0.95 1.00 1.02	1.12	2/18 (2.22)

The opening 3 entries, copied out:

| VL | replicates, log10 nM | log10 Kd (nM), mean | control signals |
|---|---|---|---|
| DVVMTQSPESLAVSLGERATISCKMQSHLFQDFAIWNNIAWYQQKAGQPPKLLIYEREQVAEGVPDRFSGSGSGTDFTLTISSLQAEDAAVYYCQQYFQLPLVFGGGTKVEIK | ND ND 1.77 2.26 1.62 ND | 1.88 | 1/18 (2.36) |
| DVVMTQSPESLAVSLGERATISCTLHANIEYGGGMWSSIAWYQQKAGQPPKLLIYDNVQRADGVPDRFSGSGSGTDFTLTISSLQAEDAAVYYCQQYQRLPLGFGGGTKVEIK | 1.15 1.51 0.30 1.49 0.63 2.04 | 1.19 | 0/18 |
| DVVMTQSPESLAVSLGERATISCKLQNFSQEDNKMWNNVAWYQQKAGQPPKLLIYDMTMKHTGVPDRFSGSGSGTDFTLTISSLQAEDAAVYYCQQYNRLPLEFGGGTKVEIK | -0.01 -0.01 -0.22 -0.09 0.01 0.33 | 0.00 | 1/18 (3.17) |